Assay: activity coefficient (dimensionless); of the first substance listed, at infinite dilution; xn = mol fraction of the nth substance listed
Details: 101.33 kPa, Liquid, Chromatography, x1 = 0

CCCCOCCCC [dibutyl ether] + N#C[N-]C#N.OCCC[n+]1ccccc1
Details	activity coefficient
318.15 K	268
328.15 K	254
338.15 K	244
348.15 K	234
358.15 K	225
368.15 K	216
